The source of these data is ChEMBL document CHEMBL3421625, “Discovery and optimization of novel antagonists to the human neurokinin-3 receptor for the treatment of sex-hormone disorders (Part I)” (J Med Chem, 2015).

The chains behind the UniProt entries cited, without tags or fusion partners.
UniProt P29371, whole entry: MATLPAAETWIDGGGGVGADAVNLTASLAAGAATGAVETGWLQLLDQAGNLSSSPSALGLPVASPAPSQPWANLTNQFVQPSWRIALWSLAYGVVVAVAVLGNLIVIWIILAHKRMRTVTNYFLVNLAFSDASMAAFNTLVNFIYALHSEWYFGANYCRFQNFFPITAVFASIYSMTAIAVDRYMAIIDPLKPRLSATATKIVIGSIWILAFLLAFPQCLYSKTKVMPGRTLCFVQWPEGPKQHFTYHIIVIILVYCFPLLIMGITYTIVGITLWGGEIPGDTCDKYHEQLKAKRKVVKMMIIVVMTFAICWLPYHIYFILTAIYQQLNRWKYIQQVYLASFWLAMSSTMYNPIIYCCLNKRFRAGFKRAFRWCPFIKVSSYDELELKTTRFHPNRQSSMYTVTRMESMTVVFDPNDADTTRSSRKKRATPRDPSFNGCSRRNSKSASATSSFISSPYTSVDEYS

The target in the experiment is Neuromedin-K receptor (Homo sapiens, UniProt P29371).

For the compound `Cc1nc(-c2nnc3n2CCN(C(=O)c2ccc(-c4cccs4)cc2)[C@H]3C)cs1`, the IC50 (usually the concentration that gives 50% inhibition) is 501 nM.
